Some of the results follow.
System: A. baumannii ATCC 17978
Test: relative growth (fraction of control); higher = less inhibition
Details: 50 µM

Compound | relative growth
CN(C)CCOC(=O)COc1ccc(Cl)cc1.Cl | 1.05
NCCN1CCC(C(=O)O)CC1 | 1.09
C/C=C(\C(C)=N\O)c1ccccc1 | 1.02
C=CC1=C(C(=O)O)N2C(=O)C(NC(=O)/C(=N/OCC(=O)O)c3csc(N)n3)C2SC1 (configuration not stated) | 0.884
Br.Cn1c(=O)c2c(ncn2C)n(C)c1=O | 0.863
CCOC(=O)C[C@@H](N)c1cccc(O)c1 | 1.01
O=C(C[C@@H]1CC[C@@H]2[C@H](COC[C@H](O)CN2C(=O)c2ccccc2)O1)N1CCOCC1 | 1.07
COc1cc2c(cc1OC)CN(C(=O)[C@@H]1[C@H]3C(=O)O[C@H](c4ccccc4)[C@H](c4ccccc4)N3[C@H](c3ccc(O)cc3)[C@@]13C(=O)Nc1ccc(C#CCCO)cc13)CC2 | 1.07
COC(=O)C[C@H]1CC[C@@H]2[C@H](COC[C@@H](O)CN2S(=O)(=O)c2ccccc2C)O1 | 0.894
CS(=O)(=O)N1CCc2ccc(N)cc2C1 | 1.02
CCOC(=O)OC(C)OC(=O)C1N2C(=O)C(NC(=O)[C@H](N)c3ccccc3)C2SC1(C)C.Cl (some centres not stated) | 0.489
COc1ccc([Si](C)(C)[C@@H]2[C@@H](CCO)O[C@]3(C(=O)N(Cc4ccc(N5CCCCC5=O)cc4)c4ccccc43)[C@H]2C)cc1 | 0.86
CC(=O)N(C)C[C@@H]1Oc2cc(C#CCN(C)C)ccc2S(=O)(=O)N([C@H](C)CO)C[C@H]1C | 0.889
CN(C)C1CN(S(=O)(=O)CCC2CC2)C1 | 1.05
COc1cc(OC)c2c(c1Cl)OC1(C2=O)C(O)=CC(=O)CC1C (configuration not stated) | 0.944
OC[C@H]1O[C@H](C#Cc2ccccc2)C=C[C@@H]1O | 0.975
O=C(C[C@@H]1C[C@H]2c3cc(NC(=O)c4cccnc4)ccc3O[C@H]2[C@H](CO)O1)NCc1cc(F)ccc1F | 0.764
c1csc(-c2nc3ccc4ccccc4c3c3c2CCC3)c1 | 1.21
COC1=C(OC)C(=O)C(C/C=C(\C)CC/C=C(\C)CC/C=C(\C)CC/C=C(/C)CC/C=C(\C)CC/C=C(\C)CC/C=C(\C)CC/C=C(\C)CC/C=C(\C)CCC=C(C)C)=C(C)C1=O | 1.02

Compound | relative growth
Cn1cnc(S(=O)(=O)N[C@H]2CC[C@H](CC(=O)N3CCN(c4ccccc4)CC3)O[C@H]2CO)c1 | 0.84
C/C=C(/C(=C/C)c1ccc(O)cc1)c1ccc(O)cc1 | 0.898
COCC(=O)N1C[C@@H](C)[C@@H](OC)CN(C)C(=O)c2ccc(NC(=O)Nc3cccc(F)c3)cc2OC[C@H]1C | 1.07
C=C1SC(Nc2c(C)cccc2C)=NC12CCCCC2 | 0.837
Cc1ccc(S(=O)(=O)n2cc([C@H]3CC(=O)N(C(=O)OCc4ccccc4)[C@H]3C(=O)Nc3cccc4cccnc34)c3ccccc32)cc1 | 1.18
CC1(C)NCS[C@H]1C(=O)O | 1.16
NCC[C@H]1CC[C@@H](NC(=O)c2ccccc2F)[C@@H](CO)O1 | 1.05
O=C(C[C@H]1C=C[C@H](NS(=O)(=O)c2ccccc2F)[C@H](CO)O1)NCCCN1CCOCC1 | 0.929
COc1ccc(-c2ccc3c(c2)O[C@@H](CN(C)CC2CCOCC2)[C@H](C)CN([C@@H](C)CO)S3(=O)=O)cc1 | 0.848
N#Cc1ccc(N2CCCNCC2)nc1 | 0.959
COC(=O)[C@H]1CCCC[C@@H]1CN | 1.07
NCCCCCCNC(=O)[C@@H]1C[C@@H]2C(=O)N[C@@H](CCCCN)C(=O)N2[C@@H]1c1ccc(O)cc1 | 0.85
COc1ccc(CSCCN)cc1Cl | 0.936
O=C(C[C@@H]1CC[C@H]2NC[C@@H](O)COC[C@@H]2O1)NCCN1CCCC1 | 0.893
CC(=O)Oc1cccc(C)c1 [meta-CRESYL ACETATE] | 1.04
COCC(=O)N(C)C[C@H]1Oc2cc(C#CCN(C)C)ccc2S(=O)(=O)N([C@@H](C)CO)C[C@@H]1C | 1.01
O=C(N[C@H]1CC[C@H](CCNS(=O)(=O)c2ccc(F)cc2)O[C@H]1CO)C1CC1 | 0.936
CC(=C\C(=O)O)/C=C(\C)C[C@H](C)CCCC[C@H](OC(=O)[C@H](CO)[C@H](O)CCCC[C@H](C)C/C(C)=C/C(C)=C/C(=O)O)[C@@H](CO)C(=O)O | 1.09
CC(C)CC#Cc1ccc2c(c1)O[C@H](CN(C)Cc1cncnc1)[C@@H](C)CN([C@H](C)CO)S2(=O)=O | 0.871

Compound | relative growth
Cn1c(=O)c2c(nc(SCCNS(=O)(=O)c3ccccc3)n2C)n(C)c1=O | 0.971
COc1cccc(S(=O)(=O)N(C)C[C@H]2Oc3ncc(C#CCN(C)C)cc3C(=O)N([C@@H](C)CO)C[C@H]2C)c1 | 1.27
C=CCCCCCCCCC(=O)[O-].C=CCCCCCCCCC(=O)[O-].[Zn+2] | 1.01
CCS(=O)(=O)NCC[C@H]1CC[C@H](NS(=O)(=O)c2ccccc2C)[C@H](CO)O1 | 1.12
C[C@@H]1[C@@H](O)[C@@H](N(C)C)C[C@H]2COC[C@@H]21 | 1.03
CCOC(=O)[C@H]1C/C=C/C[C@H](C(=O)OCC)C(=O)O[C@H]2[C@@H](OC)O[C@H](CO)[C@@H](OC(=O)Nc3ccc(OC)cc3)[C@@H]2OC1=O | 1.04
CCNC(=O)/C=C/c1cccc(Br)c1 | 1.06
COc1ccc(-c2c(C)oc3ccc(Cl)cc23)cc1 | 1.08
O=C(O)CCNC(=O)c1cncc(O)c1 | 0.917
O=C(C[C@@H]1C=C[C@@H](NC(=O)Cc2ccccn2)[C@@H](CO)O1)NCCc1ccncc1 | 1.05
O=C(C[C@@H]1CC=CC[C@@H](NC(=O)OCC2c3ccccc3-c3ccccc32)C(=O)OC[C@H](Cc2ccccc2)NC1=O)N[C@H](CO)Cc1ccccc1 | 1.15
O=c1ccc2c[nH][nH]c-2c1 | 1.03
CN(C)CCCOc1nn(Cc2ccccc2)c2ccccc12.Cl | 0.974
O=c1[nH]ccn(-c2ccccc2)c1=O | 1.03
Cc1cc(O)n(CCCO)c(=O)c1C#N | 1
CN(C)CC(=O)N[C@H]1CC[C@@H](CC(=O)NCCN2CCCCC2)O[C@H]1CO | 0.9
CCOC(=O)Cn1c(=O)c2c(OC)ccnc2n(C)c1=O | 1.06
COc1ccc(CCNC(=O)[C@@]2(Sc3ccc(C)cc3)CC(=O)N(Cc3cc(C(F)(F)F)cc(C(F)(F)F)c3)[C@@H]2c2ccc(CO)cc2)cc1 | 1.02
CS(=O)(=O)CCOC(=O)C1=CC(c2ccc(CO)cc2)=C[C@@H](C2CC2)N(Cc2cc3c(cc2Br)OCO3)C=C1C(=O)OCCS(C)(=O)=O | 0.924
